Source: BindingDB's records for doi:10.1073/pnas.89.8.3630 (Synaptic Pharmaceutical, 1992)

Chains of the proteins cited; added tags and fusions are not shown.
UniProt Q8MI13, whole entry: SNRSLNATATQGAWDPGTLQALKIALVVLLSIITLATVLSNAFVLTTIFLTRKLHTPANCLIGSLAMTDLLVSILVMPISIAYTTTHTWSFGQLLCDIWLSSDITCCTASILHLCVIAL

Molecular target: 5-hydroxytryptamine 1D receptor (Bos taurus, UniProt Q8MI13)

Ki: 79 nM
Structure (SMILES): COC(=O)[C@@H]1[C@H]2C[C@H]3c4[nH]c5ccccc5c4CCN3C[C@@H]2CC[C@@H]1O [yohimbic acid methyl ester]
